# Shown are actives, neighbours in structure and some others; about 1.3% of the full set was active somewhere.
# miR-21 reporter: miR-21 reporter, rising signal; HeLa miR-21 FLuc reporter, luciferase, 48 h; Potency, µM (titrated, usually from 38.3 µM), for the others: at the top dose reporter change, positive = more light; 340,000 tested, under 10 active; AID 2288; active = well fitted rising curve with a large enough effect; inconclusive = small, poorly fitted or top-dose-only effect; inactive = no such curve, though single readings can be large or run the other way;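 also: % of control where 0% means no effect; miR-21 action dims this reporter so a rising signal means less miR-21 action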
#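 Luminescence from a firefly luciferase reporter carrying a miR-21 binding site downstream, stably expressed under a CMV promoter in HeLa cells that make miR-21 endogenously, reports miRNA modulation after 48 h compound exposure up to approximately 40uM final.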
# Giardia killer: kills Giardia lamblia; Giardia lamblia trophozoite viability; 340,000 tested, 0.15% active; AID 540267; activity change, % at 7.66 µM, hits read low; in the data active = activity change below about -80%; inconclusive = between about -30% and that limit;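 note: parasites exposed to compound for two days anaerobically before the ATP read; % is set by controls: 0 for no effect and ±100 for the full control effect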
#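 Giardia lamblia trophozoites (100 cells/well) were incubated with compounds for 48 h at 37 deg C under anaerobic conditions. Viability was read as ATP content by one-step luminescence after 15-30 min at room temperature.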
# ALOX12 inh: ALOX12 (human) lipoxygenase inhibition; purified 12hLO, xylenol orange hydroperoxide absorbance; Potency, µM (titrated, usually from 108 µM), without a hit: at the top dose activity change, negative = inhibition, usual class: inhibitors; 580,000 tested, 1.1% active; P18054; note: potency is the fitted concentration of half-maximal effect; % is set by controls: 0 for no effect and ±100 for the full control effect
#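 Purified human 12hLO at 150 nM in 25 mM Hepes, 0.01% Triton X-100, pH 7.0, preincubated 15 min at room temperature with compound. Reaction started with 40 uM arachidonic acid, 30 min at room temperature. Hydroperoxide measured by Fe-xylenol orange, 573/405 nm absorbance ratio.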
# PINK1 modulator: changes PINK1 expression. PINK1 immunofluorescence, high-content cytometry, 24 h. Potency, µM (doses to about 76.6 µM), for inactives: top-dose activation (PINK1 increase), most hits filed as activators. 410,000 tested, 0.2% active; active = well fitted activation curve with a large enough effect; inconclusive = small, poorly fitted or top-dose-only effect; cell line not stated here; note: potency is the fitted concentration of half-maximal effect; % of control where 0% means no effect; nearly all actives have a fitted effect of over 65% in size
#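 Cells are seeded, rested 12 hours, then given compound at five concentrations or DMSO for 24 hours. After fixation, blocking and antibody staining, PINK1 amount and mitochondrial localization are scored; CCCP serves as control.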
# PTHR1 ag: agonists of human PTHR1 parathyroid hormone receptor | 410,000 tested, 0.075% active | HEK293 GP2 PTHR1 cells, GloSensor cAMP luminescence, 1 h | AID 743266 | Potency, µM (doses to about 115 µM), for inactives: at the top dose activation, hits mostly activators | Q03431; note: potency is the fitted concentration of half-maximal effect; nearly all actives have a fitted effect of over 55% in size
#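 HEK-293-derived GP2 cells expressing PTHR1 and a GloSensor cAMP reporter, 3,000/well, plated overnight, given luciferin plus IBMX (each 0.5 mM as added) for 1 h at 37 °C, then compound for 1 h at 37 °C. Luminescence was read after 15 min at room temperature.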
# ERG-DNA inh: inhibitors of human ERG Ets domain-DNA interaction; P11308; fluorescence polarization, His-ERG Ets domain / labelled DNA; Potency, µM (series often up to 76.9 µM), for inactives: top-dose FP activity, negative = inhibition, usual class: inhibitors; 370,000 tested, 0.028% active; active = well fitted inhibition curve with a large enough effect in the polarisation, with a control signal flat; inconclusive = small, poorly fitted or top-dose-only effect, or effect the other way, or a change in a side signal; inactive = no such curve, though single readings can be large or run the other way; the % refers to the polarisation;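 note: polarization taken with two DNA probes labelled with fluorescein and Texas red; potency is the fitted concentration of half-maximal effect; % of control where 0% means no effect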
#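 His-tagged ERG Ets domain (1 uM in the protein solution; 300mM KCl, 50mM Tris-HCl, 1mM EDTA, 1mM DTT, pH 7.5) received compound, then a probe mix of 5 nM fluorescein-DNA and 100nM Texas-615-DNA. Fluorescence polarization was read for both dyes.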
# * hit, by the source's call; i = inactive; ? = inconclusive; . = no result; [ ] = another dose, or the depositor's remark. Unless noted, calls come from the whole dose curve; as a rule, active = well fitted curve in the direction sought with a large enough effect; inconclusive = small, poorly fitted or top-dose-only effect, or another doubt; inactive = no such curve, though single readings can be large; an effect the other way counts as inactive or inconclusive.
SMILES,miR-21 reporter,Giardia killer,ALOX12 inh,PINK1 modulator,PTHR1 ag,ERG-DNA inh
O=C(NCCCNC(=O)c1c(F)cccc1F)c1c(F)cccc1F,-0.4%,16.1,1.0%,0.6%,-65.1%,-4.3%
CC1(C)Cc2c(c(=S)nc(-c3ccccc3)n2CCOCCO)CO1,-7.9%,-7.8,96.4%,1.4%,-2.8%[57.5 µM],10.5%
OCCOCCn1c(-c2ccccc2)nc(=S)c2c1CCCC2,-0.1%,48.3,39.8µM*,-0.8%,?,15.2%
O=S(=O)(c1ccccc1)N1CCCC(c2nnnn2-c2ccccc2)C1 (stereo not given),.,.,32.1%,.,.,.
CC(=O)C(Cc1ccccc1)NC(=O)COC(=O)c1cccc(C)c1[N+](=O)[O-] (stereo not given),.,-11.6,-7.3%,2.6%,-5.1%,-13.8%
N#Cc1c(N)n(-c2ccc(N)cc2)c2nc3ccccc3nc12,-20.5%,2.5,14.9%,0.6%,-3.4%,3.4%
N#Cc1c(C#N)c(SSc2c(C#N)c(C#N)c(N)n2-c2ccccc2)n(-c2ccccc2)c1N,.,9.7,0.355µM*,?,-54.4%,.
CCOC(=O)C(CCSC)Nc1nc(Cl)nc(Nc2ccc(Cl)cc2)n1 (stereo not given),.,9.4,?,1.1%,i,10.0%
CCOC(=O)CCn1cnc2onc(-c3ccccc3Cl)c2c1=O,-43.8%,.,-2.3%,1.0%,-68.7%,-1.1%
CC1=CC(=O)c2ccccc2C1=O,-4.8%,10.8,?,25.4%,-44.8%,29.8%
CC(C)(C=O)C1=CC(=O)c2ccccc2C1=O,-10.2%,-6.4,39.8µM*,-1.7%,-34.9%,2.3%
CCOCCCNC(=O)N1CC(Oc2cccc(-c3nc(C)no3)c2)C1,.,.,-1.9%,.,.,.
O=C(CCc1cc(Cl)no1)N(CCS(=O)(=O)N1CCOCC1)Cc1ccccn1,.,.,7.94µM*,.,.,.
CN(CCc1ccccn1)C(=O)CCc1ccc2c(c1)CN(S(C)(=O)=O)CCO2,.,.,25.4%,.,.,.
CCCc1ccc(C(=O)NC(=O)c2ccccc2O)cc1,10.3%,-19.5,148.3%,44.7µM*,-28.3%,-1.6%
CCCc1ccc(C(=O)NNC(=O)c2ccc(Br)cc2)cc1,-13.3%,3.0,-11.8%,-0.2%,-11.8%,-3.3%
O=C(NC(=S)NNC(=O)c1ccccc1O)c1ccc(F)cc1,14.8%,?,?,-0.7%,-15.7%,5.2%
O=C(NC(=O)c1ccccc1O)c1ccc(C(F)(F)F)cc1,-19.5%,-8.8,66.3%,31.6µM*,-25.5%,-17.0%
CCCc1ccc(C(=O)NNc2ccc(F)cc2)cc1,-0.4%,-15.8,17.8µM*,-1.3%,-11.5%,-4.5%
CC(=O)Nc1ccccc1-c1nc(CNC(=O)c2cccc(F)c2)c(C)o1,.,.,1.4%,-0.6%,.,.
O=C(Cn1cc2c(n1)CCCC2)N1CCOCC1,-0.1%,-28.7,422.7%,2.5%,-20.1%,3.2%
O=C(O)Cn1cc2c(n1)CCCC2,-3.3%,-6.3,20µM*,-2.5%,-23.9%,8.8%
COC(=O)[C@@H]1Cc2ncn(Cc3ccc(Cl)cc3)c2CN1Cc1cccs1,.,.,28.3%[176 µM],.,.,.
CCOc1ccc(-c2nc(N)ncc2Oc2ccc(OC)cc2)c(O)c1,-21.9%,-7.2,15.8µM*,-0.8%,i,1.4%
Cc1ccc(NS(=O)(=O)c2cccc(C(=O)NCC3(N(C)C)CCCCC3)c2)cc1,2.0%,-22.2,-6.2%,-0.3%,-49.2%,-6.5%
CN(C)C1(CNC(=O)c2cccc(S(=O)(=O)NCc3ccccc3)c2)CCCCC1,.,45.8,-0.8%,-2.2%,31.6µM*,0.0%
COc1ccc2nc3ccccc3nc2c1NC(=O)c1ccc(Br)cc1,0.1%,5.9,6.9%,14.1µM*,-2.9%,0.0%
CC(=O)N[C@H]1C[C@@H](c2cnc3ccccc3c2)O[C@@H](C2CCCCC2)C1,.,.,3.7%,.,.,.
Cc1cc(C(=O)COc2cccnc2[N+](=O)[O-])c(C)n1Cc1cccs1,-16.1%,-93.6*,?,2.6%,-86.9%,7.3%
Cc1ccc(OCC(=O)c2cc(C)n(-c3ccccc3)c2C)c([N+](=O)[O-])n1,10.2%,-102.4*,0.0%,-1.5%,-32.0%,4.2%
CCOC(=O)c1sc(CC(=O)Nc2ccccc2C)nc1C,.,.,8.91µM*,.,.,.
Cc1ccc(-c2cn3c(n2)CO[C@@H](CNCc2ccc(Cl)cc2)C3)cc1,.,.,12.6µM*,.,.,.
Clc1ccc(CNC[C@H]2Cn3c(-c4ccccc4)cnc3CO2)cc1,.,.,25.1µM*,.,.,.
Clc1ccc(CNC[C@H]2Cn3c(-c4cccc(Cl)c4)cnc3CO2)cc1,.,.,-43.0%[176 µM],.,.,.
c1ccc(CNC[C@H]2Cn3c(-c4ccc5c(c4)OCCO5)cnc3CO2)cc1,.,.,55.8%[176 µM],.,.,.
Clc1ccc(-c2cnc3n2C[C@H](CNCc2ccc4c(c2)OCO4)OC3)cc1,.,.,39.8µM*,.,.,.
Fc1ccc(-c2cnc3n2C[C@H](CNCc2ccc4c(c2)OCO4)OC3)cc1,.,.,22.4µM*,.,.,.
Clc1ccc(-c2cnc3n2C[C@H](CNCc2cccnc2)OC3)cc1,.,.,37.8%[176 µM],.,.,.
Cc1ccc(N(CC(=O)N2CCOCC2)S(C)(=O)=O)cc1,-2.1%,-4.4,0.2%,-0.4%,i,4.1%
CC(C)c1ccc(N2CC(C(=O)NCc3cncn3C3CC3)CC2=O)cc1 (stereo not given),.,.,65.5%,.,.,.

# In another format: results already given.
SMILES: CC1(C)Cc2c(c(=S)nc(-c3ccccc3)n2CCOCCO)CO1
  miR-21 reporter = -7.9%; Giardia killer = -7.8; ALOX12 inh = 96.4%; PINK1 modulator = 1.4%; PTHR1 ag = -2.8%[57.5 µM]; ERG-DNA inh = 10.5%
SMILES: OCCOCCn1c(-c2ccccc2)nc(=S)c2c1CCCC2
  miR-21 reporter = -0.1%; Giardia killer = 48.3; ALOX12 inh = 39.8µM*; PINK1 modulator = -0.8%; PTHR1 ag = ?; ERG-DNA inh = 15.2%
SMILES: O=S(=O)(c1ccccc1)N1CCCC(c2nnnn2-c2ccccc2)C1 (stereo not given)
  miR-21 reporter = .; Giardia killer = .; ALOX12 inh = 32.1%; PINK1 modulator = .; PTHR1 ag = .; ERG-DNA inh = .
SMILES: CC(=O)C(Cc1ccccc1)NC(=O)COC(=O)c1cccc(C)c1[N+](=O)[O-] (stereo not given)
  miR-21 reporter = .; Giardia killer = -11.6; ALOX12 inh = -7.3%; PINK1 modulator = 2.6%; PTHR1 ag = -5.1%; ERG-DNA inh = -13.8%

# More structures
SMILES,miR-21 reporter,Giardia killer,ALOX12 inh,PINK1 modulator,PTHR1 ag,ERG-DNA inh
COc1ccc(-c2cc(C(=O)NCCN3CCOCC3)c3ccccc3n2)cc1,-23.4%,3.7,0.0%,-1.2%,i,-8.7%
COc1ccc2nc(-c3ccc4c(c3)OCO4)cc(C(=O)NCCN3CCOCC3)c2c1,.,.,39.8µM*,.,.,.
CCCCCCCCCCCCOC(=O)C[N+](C)(C)C,6.1%,6.1,?,0.4%,-6.8%,7.9%
CCCCCCCCCCOC(=O)C[N+](C)(C)Cc1ccccc1,.,.,44.7µM*,.,.,.
Fc1cc(Br)ccc1OCc1nnc(C2CC2)o1,.,.,15.3%,.,.,.
COc1ccc(-c2ccc(CN3C(C)C(=O)N(Cc4cn(CCC5OCCO5)nn4)CCS3(=O)=O)cc2)cc1 (stereo not given),.,.,15.8µM*,-2.4%,-5.8%,.
CC(C)CC1C(=O)N(Cc2cn(Cc3ccco3)nn2)CCS(=O)(=O)N1Cc1ccc(-c2cccc(CO)c2)cc1 (stereo not given),.,.,22.4µM*,-0.2%,-2.0%,.
Cc1ccc(-c2ccc(CN3C(C(C)C)C(=O)N(Cc4cn(Cc5ccco5)nn4)CCS3(=O)=O)cc2)cc1 (stereo not given),.,.,44.7µM*,12.9%,-26.0%,.
CN1C(=O)C(c2ccccc2)CC12CCN(C(=O)C1CCCC1)CC2 (stereo not given),.,.,33.6%,.,.,.
CC(=O)N1CCN(CC(O)COc2ccc(Br)cc2)CC1 (stereo not given),2.0%,-5.9,0.355µM*,0.3%,-9.1%,-4.2%
